The values that follow come from patent publication US10071957B2, “N-substituted benzamides and methods of use thereof” (GENENTECH, INC., priority 2012, dated 2018).

The chains behind the UniProt entries cited, without tags or fusion partners.
UniProt Q15858, whole entry, looked up: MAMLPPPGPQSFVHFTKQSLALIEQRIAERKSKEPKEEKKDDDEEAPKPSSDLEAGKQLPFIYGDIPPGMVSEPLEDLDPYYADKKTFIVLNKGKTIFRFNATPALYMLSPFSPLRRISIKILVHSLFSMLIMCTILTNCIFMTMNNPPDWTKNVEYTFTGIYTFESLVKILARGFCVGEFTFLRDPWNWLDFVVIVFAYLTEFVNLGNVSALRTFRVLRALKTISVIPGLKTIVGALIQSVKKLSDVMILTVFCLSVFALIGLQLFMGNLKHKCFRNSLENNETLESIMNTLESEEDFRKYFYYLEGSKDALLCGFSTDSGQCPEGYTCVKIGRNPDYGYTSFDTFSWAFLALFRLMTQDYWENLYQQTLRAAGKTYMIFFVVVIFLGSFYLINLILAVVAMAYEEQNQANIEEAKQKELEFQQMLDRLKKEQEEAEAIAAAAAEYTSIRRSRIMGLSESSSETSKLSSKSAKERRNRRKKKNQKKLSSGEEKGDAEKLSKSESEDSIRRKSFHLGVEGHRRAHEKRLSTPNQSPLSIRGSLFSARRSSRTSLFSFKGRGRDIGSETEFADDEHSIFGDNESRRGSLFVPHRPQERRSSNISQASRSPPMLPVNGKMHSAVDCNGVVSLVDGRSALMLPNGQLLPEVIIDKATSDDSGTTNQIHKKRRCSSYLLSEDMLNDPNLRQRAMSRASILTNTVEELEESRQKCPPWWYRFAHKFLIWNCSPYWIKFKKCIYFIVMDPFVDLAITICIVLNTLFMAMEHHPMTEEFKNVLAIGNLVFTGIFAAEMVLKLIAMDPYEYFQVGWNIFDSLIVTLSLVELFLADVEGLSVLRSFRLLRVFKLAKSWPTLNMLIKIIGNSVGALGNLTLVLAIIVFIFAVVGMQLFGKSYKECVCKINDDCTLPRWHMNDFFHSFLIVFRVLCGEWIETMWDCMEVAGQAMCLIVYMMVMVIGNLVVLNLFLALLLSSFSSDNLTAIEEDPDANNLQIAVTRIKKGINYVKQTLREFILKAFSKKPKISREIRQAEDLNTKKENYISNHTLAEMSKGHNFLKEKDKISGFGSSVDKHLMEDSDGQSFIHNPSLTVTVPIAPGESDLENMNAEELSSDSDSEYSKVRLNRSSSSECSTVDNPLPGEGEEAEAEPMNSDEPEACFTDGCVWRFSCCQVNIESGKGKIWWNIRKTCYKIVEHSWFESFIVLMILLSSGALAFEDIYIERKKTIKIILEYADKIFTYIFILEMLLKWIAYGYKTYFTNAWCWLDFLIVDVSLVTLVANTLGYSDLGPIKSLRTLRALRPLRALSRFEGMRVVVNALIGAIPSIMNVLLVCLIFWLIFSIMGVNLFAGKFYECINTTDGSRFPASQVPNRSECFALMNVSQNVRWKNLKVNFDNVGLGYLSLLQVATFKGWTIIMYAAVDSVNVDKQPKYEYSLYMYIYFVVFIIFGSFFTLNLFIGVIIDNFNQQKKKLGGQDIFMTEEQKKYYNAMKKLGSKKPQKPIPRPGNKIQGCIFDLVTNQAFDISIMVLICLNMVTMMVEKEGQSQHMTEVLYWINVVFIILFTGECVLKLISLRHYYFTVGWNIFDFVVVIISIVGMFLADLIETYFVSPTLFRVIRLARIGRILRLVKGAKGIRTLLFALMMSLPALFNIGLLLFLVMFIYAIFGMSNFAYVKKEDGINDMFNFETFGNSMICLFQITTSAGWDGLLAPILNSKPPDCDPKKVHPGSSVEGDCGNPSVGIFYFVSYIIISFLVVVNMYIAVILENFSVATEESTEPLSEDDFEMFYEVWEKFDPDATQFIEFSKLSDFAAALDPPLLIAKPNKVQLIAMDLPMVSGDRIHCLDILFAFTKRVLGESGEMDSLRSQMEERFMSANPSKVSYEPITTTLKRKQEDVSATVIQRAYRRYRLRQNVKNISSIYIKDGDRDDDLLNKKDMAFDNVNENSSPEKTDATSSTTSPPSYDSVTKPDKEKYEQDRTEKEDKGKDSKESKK

Assay [1] has as its target T1, hNaV1.7 (Homo sapiens (Human), UniProt Q15858). The assay is described as follows: Patch voltage clamp electrophysiology, inactivated state block of NaV1.7 in HEK-293 cells. It is filed as cell-based. The following applies: HEK cells with β1 subunit, read-out: hNaV 1.7 IC50. As to the method:
Patch voltage clamp electrophysiology allows for the direct measurement and quantification of block of voltage-gated sodium channels (NaV's), and allows the determination of the time- and voltage-dependence of block which has been interpreted as differential binding to the resting, open, and inactivated states of the sodium channel (Hille, B., Journal of General Physiology (1977), 69: 497-515).
The following patch voltage clamp electrophysiology studies were performed on representative compounds of the invention using human embryonic kidney cells (HEK), permanently transfected with an expression vector containing the full-length cDNA coding for the desired human sodium channel α-subunit, grown in culture media containing 10% FBS, 1% PSG, and 0.5 mg/mL G418 at 37° C. with 5% CO2. […] NaV1.7 and NaV1.5 cDNAs (NM_002977 and AC137587; SCN5A, respectively) were stably expressed in HEK-293 cells. The β1 subunit was coexpressed in both the NaV1.7 and NaV1.5 cell lines.
Sodium currents were measured using the patch clamp technique in the whole-cell configuration using either a PatchXpress automated voltage clamp or manually using an Axopatch 200B (Axon Instruments) or Model 2400 (A-M systems) amplifier. The manual voltage clamp protocol was as follows:
Borosilicate glass micropipettes were fire-polished to a tip diameter yielding a resistance of 2-4 Mohms in the working solutions. The pipette was filled with a solution comprised of: 5 mM NaCl, 10 mM CsCl, 120 mM CsF, 0.1 mM CaCl2, 2 mM MgCl2, 10 mM HEPES, 10 mM EGTA; and adjusted to pH 7.2 with CsOH. […] Control sodium currents were measured in 0.5% DMSO. […]
Currents were recorded at 40 kHz sampling frequency, filtered at […], and stored using a Digidata-1322A analogue/digital interface with the pClamp software (Axon Instruments). […]
The membrane potential was maintained at a voltage where inactivation of the channel is complete (which was −60 mV for both NaV1.7 and NaV1.5). The voltage is then stepped back to a very negative (Vhold=[…]) voltage for 20 ms and then a test pulse is applied to quantify the compound block. […]

In assay [2] the target is T1, hNaV1.7. The assay is described as follows: Competitive binding of tritiated compound to membranes from cells expressing hNav1.7 and the β1 subunit. Particulars: 100 pM [3H]compound, 18 h, room temperature; read-out: NaV1.7 395 Membrane Binding IC50. As to the method: Tritiated compound binding to membranes isolated from cells that heterologously express hNav1.7 and the β1 subunit
Preparation of membranes containing recombinantly expressed sodium channels: Frozen recombinant cell pellets were thawed on ice and diluted to 4 times the cell pellet weight with ice cold 50 mM Tris HCl, pH 7.4 buffer. The cell suspensions were homogenized on ice using a motorized glass dounce homogeniser. Homogenates were further diluted 8.4 times with ice cold 50 mM Tris HCl, pH 7.4 buffer and then centrifuged at 200×g at 4° C. for 15 min. The supernatants were collected and centrifuged at 10000×g at 4° C. for 50 min. The pellets were then re-suspended in 100 mM NaCl, 20 mM Tris HCl, pH 7.4 buffer containing 1% v/v protease inhibitors (Calbiochem) and re-homogenized on ice. The homogenized membranes were then processed through a syringe equipped with a 26 gauge needle. Protein concentrations were determined by Bradford Assay and the membranes were stored at −80° C.
Radioligand Binding Studies: Saturation experiments. A representative compound of formula (I) was tritiated. Three tritiums were incorporated in place of methyl hydrogens to generate [^3H]compound. Binding of this radioligand was performed in 5 mL borosilicate glass test tubes at room temperature. Binding was initiated by adding membranes to increasing concentrations of [^3H]compound in 100 mM NaCl, 20 mM Tris HCl, pH 7.4 buffer containing 0.01% w/v bovine serum albumin (BSA) for 18 h. Non-specific binding was determined in the presence of 1 μM unlabelled compound. After 18 h, the reactants were filtered through GF/C glass fiber filters presoaked in 0.5% w/v polyethylene imine. […] [^3H]compound bound to filters was quantified by liquid scintillation counting.
Competitive binding experiments. […] Bound radioactivity was determined by liquid scintillation counting.
Data Analysis: For saturation experiments, non-specific binding was subtracted from total binding to provide specific binding and these values were recalculated in terms of pmol ligand bound per mg protein. Saturation curves were constructed and dissociation constants were calculated using the single site ligand binding model: Beq=(Bmax*X)/(X+Kd), where Beq is the amount of ligand bound at equilibrium, Bmax is the maximum receptor density, Kd is the dissociation constant for the ligand, and X is the free ligand concentration. For competition studies percent inhibition was determined and IC50 values were calculated using a 4 parameter logistic model (% inhibition=(A+((B−A)/(1+((x/C)^D)))) using XLfit, where A and B are the maximal and minimum inhibition respectively, C is the IC50 concentration and D is the (Hill) slope.

For orientation: IC50 means the concentration at which inhibition is half-maximal. Turning to `CN(C)S(=O)(=O)NC(=O)c1ccc(COc2ccc(Cl)c(Cl)c2)cc1` [Preparation 2, 4-((3,4-dichloro-phenoxy)methyl)-N-(N,N-dimethyl-sulfamoyl)benzamide], the IC50 at hNaV1.7 [1] worked out at 0.142 µM; on hNaV1.7 [2] it was 1.56 µM.

On to `O=C(NS(=O)(=O)N1CCC1)c1cc(Cl)c(Oc2ccc(Cl)c(C(F)(F)F)c2)cc1F` [Preparation 9, N-(azetidin-1-ylsulfonyl)-5-chloro-4-(4-chloro-3-(trifluoromethyl)phenoxy)-2-fluorobenzamide], for which the IC50 on hNaV1.7 [1] amounted to 0.016 µM; on hNaV1.7 [2], 0.0807 µM.

As to `CC(C)COc1ncc(Oc2cc(F)c(C(=O)NS(=O)(=O)NCc3ccccn3)cc2Cl)cc1Cl` [Preparation 20, 5-chloro-4-((5-chloro-6-isobutoxypyridin-3-yl)oxy)-2-fluoro-N-(N-(pyridin-2-ylmethyl)sulfamoyl) benzamide 2,2,2-trifluoroacetate], the figures for the IC50 on hNaV1.7 [1] and at hNaV1.7 [2] were 2.34 µM and 4.25 µM, respectively.

Regarding `CN(C)S(=O)(=O)NC(=O)c1cc(Cl)c(OCCOc2ccccc2)cc1F` [Preparation 51, 5-chloro-N-(N,N-dimethylsulfamoyl)-2-fluoro-4-(2-phenoxy-ethoxy)benzamide], the IC50 on hNaV1.7 [2] is 6.62 µM.
